## Apparent affinities of Ab-14 variants for a coronavirus HR2 peptide

Data: MIT Lincoln Laboratory AlphaSeq set, Li et al. 2023, doi:10.1038/s41467-023-39022-2, as distributed in FLAb.

The target is the same throughout: PDVDLGDISGINAS, from the HR2 region of SARS-CoV-2 spike.

Ab-14 is the parent antibody, in scFv form: VH, then a (GGGGS)3 linker, then VL. The heavy chain is unchanged in all variants.
VH: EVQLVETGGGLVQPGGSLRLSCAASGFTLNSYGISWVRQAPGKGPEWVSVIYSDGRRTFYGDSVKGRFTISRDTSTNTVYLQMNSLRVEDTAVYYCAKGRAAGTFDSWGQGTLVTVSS
VL: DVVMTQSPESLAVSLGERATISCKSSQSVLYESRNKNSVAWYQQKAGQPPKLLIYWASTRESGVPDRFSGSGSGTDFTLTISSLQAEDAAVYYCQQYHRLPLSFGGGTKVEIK

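Phage display of a naive human antibody library on the peptide gave the parent. The variants were designed computationally from a first round of random CDR variants and then made and measured. Group labels follow the data file (En: ensemble of fine-tuned language models; GP: Gaussian process model; HC: hill climbing; Gen: genetic algorithm; Gibbs: Gibbs sampling; a sequence that several methods proposed may carry one label only). AlphaSeq pools MATa yeast showing the antibodies with MATalpha yeast showing the peptide. Binding brings cells together so that they mate, and sequencing counts the barcode pairs among the diploids. Each replicate has its own calibration line, from reference interactions of the BCL2 family. Each pool was mated in six replicate cultures.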

Variants are written as CDR1, CDR2 and CDR3 of the light chain (limits as in the source). Parent: KSSQSVLYESRNKNSVA, WASTRES, QQYHRLPLS.
Variants here have more than six changes.
Values are apparent Kd, the geometric mean of the replicates that gave a signal; lower means stronger binding.
"nd" marks a missing value. The strain was present, yet no cells mated with the target were sequenced in any replicate, which points to weak or no binding.
Entries are sorted by rising average, undetected variants last.
The authors averaged sequences with at least three values out of six and counted those with two or fewer as poor binders.
Three control strains display no target. For all light chain designs, 4% of the pairings with them gave a signal, with a median of 430 nM and one signal in twenty below 38 nM, so weak values seen in few replicates may be background.
A sequence measured in both rounds can read differently, since the two assays cover different ranges.

Variant KLGSSVAMTSRNKNNVA | DLNERER | QQYHRLPLS [En_HC] gave 510 pM (6 of 6 replicates). Variant KLSQEDWYQSRMKNSVA | DASTRES | QQYHRLPLS [GP_Gibbs] showed 520 pM (6 of 6 replicates). For WLSMWEQSGTRGYSSVA | DTDVRMA | QQYHRLPLS [En_Gibbs], the assay gave 870 pM (6 of 6 replicates). For KLSQSWLYEDRPKNSVA | NASTRMQ | QQYHRLPLS [GP_Gibbs], the assay gave 980 pM (6 of 6 replicates). Variant KISQMVKVGITHSNSIA | EMVTRAN | QQYHRLPLA [En_Gen] showed 1.3 nM (6 of 6 replicates). Variant KVQFQVWYSSRNKNSVA | DANTRES | QQYHRLPLS [GP_Gibbs] showed 2.1 nM (6 of 6 replicates). With HLGGLMTWEEKARNSVA | QQETRAE | QQYHHLPLS [En_HC] the result was 2.3 nM (6 of 6 replicates). Variant MFSQTVMYESTMRNNVA | QTSTREQ | QQYDRLPLS [En_HC] gave 2.5 nM (6 of 6 replicates). With KVSQSYEYESNNSNSVA | NASQREH | QQYHRLPLS [GP_Gibbs] the result was 3.3 nM (6 of 6 replicates).

Variant KLSEFMRGLMGRKDSIA | DNTTRGS | QQYDRLPLA [En_Gen] showed 3.3 nM (6 of 6 replicates). With KFGNMVLTGSYVKNSVA | QSSTREN | QQYHRLPLS [En_HC] the result was 3.5 nM (6 of 6 replicates). With HITYGMMVAGRHSKSIA | QAEERAK | QQYDRLPLS [En_Gen] the result was 4.3 nM (6 of 6 replicates). With SITQLVGYGQKNKNSVA | QMSTREN | QQYDRLPLS [En_HC] the result was 4.3 nM (6 of 6 replicates). With KLTMMYQHTSRNKNNIA | ERSTRED | QQYHHLPLS [En_HC] the result was 5.0 nM (6 of 6 replicates). Variant AVQYQLRPGREIQNPIA | EGSHRAA | QQYDRLPLG [En_Gibbs] gave 5.1 nM (6 of 6 replicates). Variant SLTKLETVGQKKSNNIA | EQSMRYE | QQYSQLPLK [En_Gibbs] gave 5.3 nM (6 of 6 replicates). With HLSQSWEGEERNKNSVA | SASTREQ | QQYHRLPLS [GP_Gibbs] the result was 5.4 nM (6 of 6 replicates). Variant KLYAVTMLESHDKNSIA | DLSTRGN | QQYHRLPLS [En_HC] showed 8.0 nM (6 of 6 replicates).

With KLYDMAAVTMQNIRNVA | DNSTRED | QQYHRLPLS [En_Gen] the result was 9.3 nM (6 of 6 replicates). Variant QLSSITGHMQMIKNNVA | EMETREN | QQYDRLPLA [En_Gen] gave 9.5 nM (6 of 6 replicates). Variant KLRMMTLTEGYFKNSVA | QAETREN | QSYHRLPLS [En_HC] gave 11 nM (6 of 6 replicates). With KISQAVNYLSRVMNSVA | DNSTRGD | QQYFRLPLS [En_HC] the result was 26 nM (1 of 6 replicates). For HMSFLTLQGQRHRNAVA | QMTTREN | QQYDRLPLI [En_Gen], the assay gave 27 nM (6 of 6 replicates). Variant KISMLQRFQQNAKNNIA | EMSRREE | QQYHRLPLS [En_HC] gave 29 nM (6 of 6 replicates). For HISIKLPGNWYMMDSVA | HSELRAE | QQYDRLPLG [En_Gibbs], the assay gave 34 nM (6 of 6 replicates). With KVYQGINTHYGAHNSIA | QEETRLQ | QQYAHLPLS [En_Gen] the result was 50 nM (6 of 6 replicates). Variant MVSQLMLWGHLAKNSIA | EAEMRLN | QQYDRLPLF [En_Gen] gave 79 nM (1 of 6 replicates).

Variant MMSQVQGQGTRHRNNVA | QTSTREP | QQYDRLPLI [En_Gen] showed 96 nM (3 of 6 replicates). Variant MISQLMNMGQFAINSVA | QASERSN | QQYDRLPLV [En_Gen] showed 130 nM (6 of 6 replicates). For HVSEMIFAQNKARNSVA | ENNTREA | QQYDRLPLS [En_HC], the assay gave 210 nM (6 of 6 replicates). Variant TIGAQLMYGMRNRSNVA | EVSQRLN | QQYDRLPLI [En_Gen] showed 230 nM (5 of 6 replicates). Variant KLREVHHVESKQKNNVA | DNSTRES | QDYYRLPLS [En_HC] showed 790 nM (2 of 6 replicates). Variant KISWNYLIESKNLNSVA | EMTTREY | QDYDRLPLS [En_HC] showed 840 nM (4 of 6 replicates). With KISQMSTIESIIHNSVA | QTSTRES | QQYDRLPLS [En_HC] the result was nd (0 of 6 replicates).